Data reported in US20140213538A1, “LYSOPHOSPHATIDIC ACID RECEPTOR ANTAGONISTS” (InterMune, Inc., priority 2013, published 2014).

Chains of the proteins cited; added tags and fusions are not shown. Lines headed by an entry give the natural chain unless they say otherwise; changes in a name come on top.
UniProt Q92633, whole entry: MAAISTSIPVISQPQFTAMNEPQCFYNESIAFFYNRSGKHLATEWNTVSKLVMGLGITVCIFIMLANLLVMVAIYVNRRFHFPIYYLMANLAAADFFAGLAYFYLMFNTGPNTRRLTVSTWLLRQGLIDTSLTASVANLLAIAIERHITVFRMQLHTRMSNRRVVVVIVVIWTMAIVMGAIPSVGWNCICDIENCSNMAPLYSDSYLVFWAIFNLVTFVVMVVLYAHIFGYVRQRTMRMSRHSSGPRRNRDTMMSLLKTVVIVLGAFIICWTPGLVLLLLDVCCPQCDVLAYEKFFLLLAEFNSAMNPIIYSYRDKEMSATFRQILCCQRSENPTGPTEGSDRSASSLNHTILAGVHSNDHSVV

What was measured:
LPA/S1P GPCR of interest = LPA/S1P GPCR of interest (Homo sapiens, UniProt Q92633); assay: Beta-Arrestin based assay (PathHunter); conditions: read-out: Beta Arrestin EC50
Description: CMV promoter based DNA constructs expressing a fusion of the LPA/S1P GPCR of interest and ProLink™ tag were used to transfect EA Parental™ CHO cells (DiscoverX, Fremont, Calif.) using a FuGENE® transfection kit (Roche). Beta-Arrestin based assays were conducted 24-48 hrs post transfection using PathHunter® assay kits (DiscoverX, Fremont, Calif.). Agonist and antagonist assays were performed in quadruplicate in white 384 well plates. End point luminescence data were plotted and fit to a 4 parameter logistic function to obtain IC50 values. For antagonist assays, an IC80 concentration of agonist (LPA) equal to 0.5 micromolar was used.

LPA1 [1] = target: T1, LPA1 (Homo sapiens, UniProt Q92633); assay: LPA1 Migration Assay (Oris); type: cell-based; conditions: read-out: Cell Migration EC50
Text: LPA1 Migration Assay Migration of primary fibroblasts (including lung, dermal), HFL-1, 3T3 and CHO cells expressing LPA1R were monitored using the Oris™ assay (Platypus Technologies, Madison, Wis.). These cells were dye (Cell Tracker Green™) loaded and serum starved for 12-24 hrs. In response to chemoattractants such as LPA and serum, the cells migrated inward in to the exclusion (detection) zone. After fixing, fluorescent cells in the detection zone were counted using a high content reader. The ability of LPA1 antagonists to inhibit cell migration is quantified by plotting cell number vs. compound concentration and curve fitting the resulting dose-response curve to a 4 parameter logistic function.

LPA1 [2] = target: T1, LPA1; assay: Ca Flux LPA1 assay; type: cell-based; conditions: read-out: Ca Flux LPA1 IC50

Compound	EC50 (LPA/S1P GPCR of interest)	EC50 (LPA1 [1])	IC50 (LPA1 [2])
C[C@@H](OC(=O)Nc1c(-c2ccc(-c3ccc(OC(C)(C)C(=O)O)c(F)c3)cc2)cnn1C)c1ccccc1	50 to 500 nM	50 to 500 nM	–
C[C@@H](OC(=O)Nc1c(-c2ccc(-c3ccc(C4(C(=O)O)CC4)cc3)cc2)cnn1C(F)(F)F)c1ccccc1	–	50 to 500 nM	–
C[C@@H](OC(=O)Nc1c(-c2cc3sc(-c4ccc(CC(=O)O)c(F)c4F)cc3s2)cnn1C)c1ccccc1 [IT211]	50 to 500 nM	–	–
Cc1nsc(-c2cc(F)c(-c3cc4sc(C5(C(=O)O)CC5)cc4s3)cc2F)c1NC(=O)O[C@H](C)c1ccccc1	< 50 nM	50 to 500 nM	> 500 nM
Cc1nsc(-c2cc3sc(-c4ccc5c(CC(=O)O)c[nH]c5c4)cc3s2)c1NC(=O)O[C@H](C)c1ccccc1	> 500 nM	–	–
